# Antibody variant affinities, Ab-14 light chain, assay 1

Target: peptide PDVDLGDISGINAS, taken from heptad repeat 2 (HR2) of SARS-CoV-2 spike.

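The parent was found by panning a naive human phage display library on the peptide. In library AAYL50, one, two or three CDR residues were substituted; doubles and triples were drawn at random. Affinity was read by AlphaSeq, a pooled yeast mating assay with surface-displayed partners. Mating (16 h, 30 °C) was followed by selection of diploids and sequencing of their barcodes. A regression on co-assayed BCL2-family reference pairs converts the normalised counts of each replicate to an apparent Kd. Each pool was mated in three replicate cultures.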

Parent scFv Ab-14: VH joined to VL by the linker GGGGSGGGGSGGGGS. Changes lie in the light chain CDRs alone.
VH: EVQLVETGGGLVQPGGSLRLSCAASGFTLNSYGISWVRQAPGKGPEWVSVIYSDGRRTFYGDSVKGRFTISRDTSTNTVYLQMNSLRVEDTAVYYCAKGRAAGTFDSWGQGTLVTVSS
VL: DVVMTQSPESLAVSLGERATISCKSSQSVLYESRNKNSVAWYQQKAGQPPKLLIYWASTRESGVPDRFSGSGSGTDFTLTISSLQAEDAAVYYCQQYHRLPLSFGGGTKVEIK

Changes read parent residue, position, new residue, counted from the first residue of the VL shown.
Scale: log10 of Kd in nM, estimated from mating counts; low values are strong binders.
An entry "ND" has no value in the source: the pair was not observed among the diploids in that replicate. This suggests poor binding but is not conclusive.
As a blank, each scFv also met three strains without target: over library AAYL50, 18% of these pairings were detected, typically at 4.19 and seldom below 2.99. For each scFv, signals with the empty controls are counted beside the result, with their mean in brackets.

changes	replicates, log10 nM	empty controls
S26C+S28T+Q95V	1.57 1.83 1.55	3 of 9 (3.89)
V39I+T59C+H98R	1.72 1.93 2.59	0 of 9
S62R+R99A+P101M	ND 3.63 ND	1 of 9 (2.69)
A40W+W56H+S58Q	ND 5.17 4.92	4 of 9 (4.19)
S26T+Q95N+H98D	1.47 1.49 1.65	2 of 9 (5.70)
V39F+W56N+S58Q	0.13 0.51 0.37	3 of 9 (5.00)
V29M+E32M+S33H	ND 3.27 ND	2 of 9 (3.60)
L30V+E32F+W56I	ND 3.96 ND	1 of 9 (3.69)
K36V+E61Q+L102Y	ND ND ND	2 of 9 (4.93)
K24W+E32P	ND ND 2.78	0 of 9
K24I+S25C+L100N	ND ND ND	1 of 9 (5.06)
K36F+S58G+S62L	1.51 1.81 1.93	1 of 9 (4.71)
Y31C+V39N+R99K	ND 3.28 3.52	2 of 9 (3.49)
K24C+H98Y+L100D	4.72 ND 4.93	3 of 9 (4.46)
S38C+S62G+Q96C	ND ND ND	2 of 9 (3.94)
L30P+Y31T+P101A	ND ND ND	0 of 9
E32Y+Q96N+P101G	ND ND ND	0 of 9
S28H+N37H+S103N	1.89 1.85 2.12	1 of 9 (4.92)
Y31Q+E61L	0.84 0.98 0.94	3 of 9 (4.46)
V29Y+L30Q+A57S	2.20 2.37 1.73	4 of 9 (3.55)
L30S+R34G+H98S	0.64 0.83 0.74	2 of 9 (5.61)
S33V+Q95W+P101L	3.02 2.04 2.58	0 of 9
V29Y+A40E+L100D	5.48 5.27 ND	3 of 9 (4.41)
V29Q+K36L+H98F	0.38 0.57 0.59	2 of 9 (4.27)
A57W+Q96W+L100T	3.86 ND ND	1 of 9 (4.18)
V39G+Y97V+L100S	3.37 ND 3.98	3 of 9 (3.33)
Y31A+S38E+Q95G	ND ND 4.76	2 of 9 (3.65)
K24W+S38I+V39E	4.75 ND ND	2 of 9 (3.60)
A40T+Q95D+S103P	ND ND ND	1 of 9 (3.65)
W56K+Q95I+P101W	ND ND ND	2 of 9 (3.81)
S38A+V39I+P101I	1.43 1.44 1.43	9 of 9 (4.40)
L30I+V39D+L100W	ND ND ND	0 of 9
Q96C+H98V+L100A	5.38 3.31 2.77	0 of 9
V29M+V39D+S62A	3.89 3.82 ND	7 of 9 (4.70)
S62Y+Y97Q+S103E	0.81 1.17 0.96	2 of 9 (4.26)
K24I+V29D+L102S	ND ND ND	0 of 9
V39H+L102W	ND ND ND	0 of 9
K24N+S26D+S62Q	0.68 0.73 1.41	2 of 9 (2.87)
K24W+V29H+R34D	2.13 1.91 2.06	3 of 9 (3.74)
Y31I+T59H+S62M	ND ND ND	1 of 9 (1.71)
R60M+Q96D+H98E	1.04 1.14 1.38	0 of 9
S38Q+S58Q+R99Y	ND 3.64 4.37	0 of 9

The 4 strongest on average among those seen in every replicate, once more:

changes	replicates, log10 nM	empty controls
V39F+W56N+S58Q	0.13 0.51 0.37	3 of 9 (5.00)
V29Q+K36L+H98F	0.38 0.57 0.59	2 of 9 (4.27)
L30S+R34G+H98S	0.64 0.83 0.74	2 of 9 (5.61)
Y31Q+E61L	0.84 0.98 0.94	3 of 9 (4.46)

Values reported by Engelhart et al. 2022, doi:10.1038/s41597-022-01779-4 (FLAb copy).